Experimental findings from paper PMC9019904, “AD Informer Set: Chemical tools to facilitate Alzheimer's disease drug discovery” (Alzheimer's & Dementia : Translational Research & Clinical …, 2022) are described below.

This data set in a line: Kinetic solubility in aqueous buffer pH 7.4 by total chemiluminescent nitrogen determination (Analiza).

Regarding `C=CC[N+]1([C@H]2C[C@H]3[C@@H]4CC[C@H]5C[C@H](O)[C@@H](N6CCOCC6)C[C@]5(C)[C@H]4CC[C@]3(C)[C@H]2OC(C)=O)CCCC1` [Rocuronium Bromide], the “Kinetic solubility” value stood at 131.6 µM.
